{"source": "patent US7339026B2", "about": "“mda-9 protein” (The Trustees of Columbia University In the City of New York, priority 1996, dated 2008)", "tested_on": "H0-1 cells", "assay": "Effect of interferons on growth of H0-1 cells (FIG. 3)", "format": "cell-based, human", "conditions": "4 d treatment with 100 U/ml interferon", "description": "FIG. 3. Effect of interferons on growth of H0-1 cells. Cells were grown for 96 h in the absence or presence of IFN-α (100 and 1000 U/ml), IFN-β (100 and 1000 U/ml) or IFN-γ (100 U/ml) and cell numbers in triplicate plates were determined. Results are the average cell number ±S.D. from the mean.\nTreatment of H0-1 Cells with Interferon Induces Growth Suppression While Enhancing mda-9 Expression. Experiments were performed to determine if a relationship exists between growth suppression and reduced mda-9 expression. To test this connection, the effect of interferon and MEZ treatment on proliferation and mda-9 expression in human melanoma cells was determined. Growth of H0-1 cells in the presence of type I interferon, IFN-α or IFN-β, or type II interferon, IFN-γ, suppresses the growth of H0-1 cells (FIG. 3). […] Under similar experimental conditions, 100 U/ml of IFN-γ reduces growth by ˜43% and 100 U/ml of IFN-α reduces growth by only ˜23%. Unlike IFN-β+MEZ, which reduce mda-9 expression in H0-1 cells, all three interferons enhance mda-9 expression ˜1.9- to ˜4.0-fold based on equalization for GAPDH expression (FIG. 4). In contrast, mda-9 expression is unaffected in H0-1 cells grown for 4 days in 10 ng/ml of MEZ, even though growth is reduced by ˜74% (Table 1 and data not shown).", "data": [{"substance": "IFN-α: Recombinant human IFN-α (IFN-αA), leukocyte interferon", "values": [{"measurement": "reduction of H0-1 growth", "result": "~23", "unit": "%"}]}]}
